This passage reports IC50 results from patent US10112926B2 (priority 2014, dated 2018).

Protein sequences, listed by entry. Tags and fused reporters are not part of them. Lines headed by an entry give the natural chain unless they say otherwise; changes in a name come on top.
UniProt Q9UBF8: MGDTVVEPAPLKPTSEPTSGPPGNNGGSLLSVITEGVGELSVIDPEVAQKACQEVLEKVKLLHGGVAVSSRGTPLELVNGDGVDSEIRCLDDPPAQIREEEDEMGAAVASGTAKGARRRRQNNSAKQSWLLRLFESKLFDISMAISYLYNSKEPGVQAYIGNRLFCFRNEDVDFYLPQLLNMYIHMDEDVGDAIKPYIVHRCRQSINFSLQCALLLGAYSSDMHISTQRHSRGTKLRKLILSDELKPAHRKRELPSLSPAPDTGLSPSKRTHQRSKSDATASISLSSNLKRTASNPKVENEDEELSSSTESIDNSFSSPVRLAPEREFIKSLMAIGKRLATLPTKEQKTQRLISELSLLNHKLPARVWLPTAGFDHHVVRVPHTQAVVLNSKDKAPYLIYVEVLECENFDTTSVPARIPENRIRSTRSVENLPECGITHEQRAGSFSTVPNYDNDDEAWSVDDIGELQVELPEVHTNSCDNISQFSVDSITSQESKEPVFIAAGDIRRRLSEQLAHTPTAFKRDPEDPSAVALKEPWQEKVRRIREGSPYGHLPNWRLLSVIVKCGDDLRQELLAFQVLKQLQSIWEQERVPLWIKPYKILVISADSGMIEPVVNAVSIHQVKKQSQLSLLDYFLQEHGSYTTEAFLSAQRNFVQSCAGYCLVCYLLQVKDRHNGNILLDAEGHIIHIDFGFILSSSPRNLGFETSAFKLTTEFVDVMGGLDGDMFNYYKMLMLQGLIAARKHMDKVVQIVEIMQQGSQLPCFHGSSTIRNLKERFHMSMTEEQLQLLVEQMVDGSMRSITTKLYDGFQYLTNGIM

Structures can show the parent of a compound that is named as a salt.

The experiment deals with PI 4-kinase beta (Homo sapiens (Human), UniProt Q9UBF8). As to conditions: read-out: Assay D PI4Kβ IC50.

What is called IC50 is the point on the concentration scale where inhibition reaches its midpoint. Regarding `CCc1noc(-c2cc(-c3cc(S(=O)(=O)NCC(C)(C)O)ccc3C)cnc2N)n1` [Example 5.3, 3-(6-Amino-5-(3-ethyl-1,2,4-oxadiazol-5-yl)pyridin-3-yl)-N-(2-hydroxy-2-methylpropyl)-4-methylbenzenesulfon-amide hydrochloride], the IC50 turned out to be 7500 nM.

Regarding `Cc1noc(-c2cc(-c3cc(S(=O)(=O)N[C@H]4C[C@@H](O)C4)ccc3C)cnc2N)n1` [Example 5.5a, 3-(6-Amino-5-(3-methyl-1,2,4-oxadiazol-5-yl)pyridin-3-yl)-N-((1s,3s)-3-hydroxycyclobutyl)-4-methylbenzenesulfonamide], the concentration for half-maximal inhibition (IC50) was found to be 4600 nM.

As to `Cc1ncc(-c2cc(-c3cc(S(=O)(=O)NCC(C)(C)O)ccc3C)cnc2N)o1` [Example 6, 3-(6-Amino-5-(2-methyloxazol-5-yl)pyridin-3-yl)-N-(2-hydroxy-2-methylpropyl)-4-methylbenzenesulfonamide], the IC50 was found to be 2730 nM.

Take `Cc1cc(-c2cc(-c3cc(S(=O)(=O)NCC4(C)COC4)ccc3C)cnc2N)on1` [Example 17, 3-[6-Amino-5-(3-methyl-isoxazol-5-yl)-pyridin-3-yl]-4-methyl-N-(3-methyl-oxetan-3-ylmethyl)-benzenesulfonamide hydrochloride]: the IC50 was determined as 1500 nM.

Turning to `Cc1cc(-c2cc(-c3cc(S(=O)(=O)N[C@H]4CC[C@H](N)CC4)ccc3C)cnc2N)on1` [Example 19.3, 3-(6-amino-5-(3-methylisoxazol-5-yl)pyridin-3-yl)-N-(trans-4-aminocyclohexyl)-4-methylbenzenesulfon-amide acetic acid salt], the IC50 amounted to 1200 nM.

Take `Cc1cc(-c2cc(-c3cc(S(=O)(=O)NCC4(O)CC4)ccc3C)cnc2N)on1` [Example 19.10, 3-(6-amino-5-(3-methylisoxazol-5-yl)pyridin-3-yl)-N-((1-hydroxycyclopropyl)methyl)-4-methylbenzenesulfon-amide trifluoroacetic acid salt]: the IC50 was 3700 nM.

In the case of `Cc1ccc(S(=O)(=O)NOCC(C)(C)O)cc1-c1cnc(N)c(-c2cnn(CC(F)(F)F)c2)c1` [Example 34, 3-(6-Amino-5-(1-(2,2,2-trifluoroethyl)-1H-pyrazol-4-yl)pyridin-3-yl)-N-(2-hydroxy-2-methylpropoxy)-4-methylbenzenesulfonamide hydrochloride], the IC50 was determined as 1300 nM.

In the case of `Cc1cc(-c2cc(-c3cc(S(=O)(=O)NCC4(CO)CCCCC4)ccc3C)cnc2N)on1` [Example 37.3, 3-(6-Amino-5-(3-methylisoxazol-5-yl)pyridin-3-yl)-N-((1-(hydroxymethyl)cyclohexyl)methyl)-4-methylbenzenesulfonamide], the IC50 came out at 1800 nM.

Turning to `Cc1cc(-c2cc(-c3cc(S(=O)(=O)NCC4(O)CCCCC4)ccc3C)cnc2N)on1` [Example 37.9], the IC50 came out at 1700 nM.

Regarding `Cc1cc(-c2cc(-c3cc(S(=O)(=O)NCC4(CO)CCCC4)ccc3C)cnc2N)on1` [Example 37.23, 3-(6-Amino-5-(3-methylisoxazol-5-yl)pyridin-3-yl)-N-((1-(hydroxymethyl)cyclopentyl)methyl)-4-methylbenzenesulfonamide], the IC50 was found to be 2100 nM.

For `Cc1cc(-c2cc(-c3cc(S(=O)(=O)NCCC4(O)CCCCC4)ccc3C)cnc2N)on1` [Example 37.30, 3-(6-Amino-5-(3-methylisoxazol-5-yl)pyridin-3-yl)-N-(2-(1-hydroxycyclohexyl)ethyl)-4-methylbenzenesulfonamide], the IC50 was 1900 nM.

For `Cc1cc(-c2cc(-c3cc(S(=O)(=O)NCC4(O)CCC4)ccc3C)cnc2N)on1` [Example 37.35, 3-(6-Amino-5-(3-methylisoxazol-5-yl)pyridin-3-yl)-N-((1-hydroxycyclobutyl)methyl)-4-methylbenzenesulfonamide], the IC50 came to 3200 nM.

As for `Cc1cc(-c2cc(-c3cc(S(=O)(=O)NCC4(CO)COC4)ccc3C)cnc2N)on1` [Example 50, 3-(6-Amino-5-(3-methylisoxazol-5-yl)pyridin-3-yl)-N-((3-(hydroxymethyl)oxetan-3-yl)methyl)-4-methylbenzenesulfonamide], the IC50 came to 4700 nM.
